# Binding of CDR-mutated scFvs to a peptide of the spike HR2 region

Target: peptide PDVDLGDISGINAS, taken from heptad repeat 2 (HR2) of SARS-CoV-2 spike.

Parent: Ab-91, a human scFv built as VL, the linker GGGGSGGGGSGGGGS, VH. Only the CDRs of the heavy chain vary.
VL: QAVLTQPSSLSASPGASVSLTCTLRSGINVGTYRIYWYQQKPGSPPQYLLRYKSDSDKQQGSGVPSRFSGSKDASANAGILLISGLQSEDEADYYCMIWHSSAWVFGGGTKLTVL
VH: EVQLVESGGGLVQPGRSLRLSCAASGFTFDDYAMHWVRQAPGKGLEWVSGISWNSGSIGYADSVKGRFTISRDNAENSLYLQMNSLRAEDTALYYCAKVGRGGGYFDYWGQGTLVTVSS

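AAYL51 was designed without a model: most single CDR substitutions and a random sample of double and triple ones. Affinity was read by AlphaSeq, a pooled yeast mating assay with surface-displayed partners. Binding brings cells together so that they mate, and sequencing counts the barcode pairs among the diploids. Scores were corrected for input abundance and mapped to Kd with protein pairs of known affinity run in the same pool. Mating was done three times.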

Variants are written as CDR1, CDR2 and CDR3 of the heavy chain (limits as in the source). Parent: GFTFDDYAMH, GISWNSGSIGYADSVK, VGRGGGYFDY.
Every variant below is changed at F27 of the VH (sequential numbering).
Each Kd is an estimate from the mating assay, the geometric mean of the replicates in which the pair was seen; lower is stronger.
Where no diploid with the target was found in any replicate, the entry reads "nd": below detection, most likely a poor binder, though not proof of it.
Empty control strains, which show no peptide, gave a signal in 21% of pairings with library AAYL51; the median was 34 µM and 95% of these signals were weaker than 1.8 µM. No background was subtracted. The control count says in how many pairings with the empty strains this scFv gave a signal.

Variant GLTFKDYAMH | GISWNSGSIGYADSVK | MGRGGGYFDY gave 390 nM (3 of 3 replicates; controls 1 of 9). Variant GLTFDDYAGH | GISWNSGSIPYADSVK | VGRGGGYFDY gave 4.8 µM (1 of 3 replicates; controls 0 of 9). Variant MVTFDDYAMH | GISWNSGSIGYADSVK | VGRGGGKFDY gave 17 µM (1 of 3 replicates; controls 1 of 9). With GGTFDDYAMH | GISWNSGSIGAADSVK | VGRGGGKFDY the result was nd (0 of 3 replicates; controls 0 of 9). Variant GDTFDDYAMH | GISWASGSIGYADSVK | VGRGGGFFDY showed nd (0 of 3 replicates; controls 0 of 9).

For GWTFDDYAMH | GISWPSGSIGYADSVK | VGRGGVYFDY, the assay gave nd (0 of 3 replicates; controls 0 of 9). For GTTFDDYAPH | GISWNSGSIGYADSVK | VGRGGGYFDY, the assay gave 43 µM (2 of 3 replicates; controls 0 of 9). With GCTFDDYAMH | GISWNSGSIGYADPVK | VGRGGGYFDN the result was nd (0 of 3 replicates; controls 0 of 9). Variant GNTFGDYAMH | GISWNSGWIGYADSVK | VGRGGGYFDY gave 98 µM (2 of 3 replicates; controls 6 of 9). Variant GDTFDDYAMH | GISWNSGSWGYADSVK | PGRGGGYFDY showed nd (0 of 3 replicates; controls 1 of 9).

For GSTFDDYAMH | GISWNSGSIGYADSVC | VGRGTGYFDY, the assay gave nd (0 of 3 replicates; controls 1 of 9). For GETFDDYAMH | GISVNSGSIGYADSVK | VGRGGGYFDF, the assay gave nd (0 of 3 replicates; controls 1 of 9). Variant GDTFDDYVMH | GIHWNSGSIGYADSVK | VGRGGGYFDY gave 7.6 µM (1 of 3 replicates; controls 3 of 9). For VQTFDDYAMH | GISWNSGSIGYADDVK | VGRGGGYFDY, the assay gave 6.7 µM (1 of 3 replicates; controls 0 of 9). Variant GGTFDDYAMY | GISWNSGSIGYADSVK | VGRGYGYFDY showed 2.4 µM (1 of 3 replicates; controls 4 of 9).

Variant EVTFDDYAMQ | GISWNSGSIGYADSVK | VGRGGGYFDY gave 160 nM (3 of 3 replicates; controls 6 of 9). For GGTRDDYAMH | GISWNSGSHGYADSVK | VGRGGGYFDY, the assay gave 68 µM (1 of 3 replicates; controls 1 of 9). Variant GETFDDYAMH | GISWNSGSIGTADSVK | VGGGGGYFDY gave 270 µM (1 of 3 replicates; controls 2 of 9). For GHIRDDYAMH | GISWNSGSIGYADSVK | VGRGGGYFDY, the assay gave 65 µM (1 of 3 replicates; controls 0 of 9). Variant GPTFDDYRMH | GISWNSGSIGYADSVK | VGYGGGYFDY showed 88 µM (2 of 3 replicates; controls 5 of 9).

With GPTFDDYAMH | GISWNSGSISYADSVK | VGRGKGYFDY the result was 180 µM (3 of 3 replicates; controls 2 of 9). For GGTFDDYAGH | GISWNSGSIGYADSVK | VGRYGGYFDY, the assay gave 43 µM (1 of 3 replicates; controls 1 of 9). With GRTFDDYAMH | GISWNSGSIGYADSVK | VGRGGGYFDY the result was nd (0 of 3 replicates; controls 0 of 9). Variant GLTFDDYAMH | PISWNSGSIGYADSVK | VNRGGGYFDY showed 280 µM (3 of 3 replicates; controls 6 of 9). Variant GSTFDDYAMH | GISWNSGSIGNADSVK | VGRGGGLFDY gave 19 µM (2 of 3 replicates; controls 3 of 9).

For GTTFDDYAMH | GISWNSGSIGYADSVK | VGRGGGVFIY, the assay gave 90 µM (2 of 3 replicates; controls 4 of 9). With GKTMDDYAMH | GISWNSGSIGYADSVC | VGRGGGYFDY the result was nd (0 of 3 replicates; controls 1 of 9). For GETFDDYAMH | LISWNSGSIGYADSLK | VGRGGGYFDY, the assay gave 1.3 mM (2 of 3 replicates; controls 1 of 9). For GTTFDDYAMH | GISWNSGSIGYADSVK | VGRGGGYFDY, the assay gave 3.0 µM (2 of 3 replicates; controls 1 of 9). For MCTFDDYAMH | GISWNSGSIGYADSVK | VGRGGGAFDY, the assay gave 92 nM (3 of 3 replicates; controls 9 of 9).

For GNTFDDYAMH | CISWNSGSIGYADSVK | VGRFGGYFDY, the assay gave 62 µM (2 of 3 replicates; controls 5 of 9). For GSTFDHYAMC | GISWNSGSIGYADSVK | VGRGGGYFDY, the assay gave 1.5 mM (2 of 3 replicates; controls 1 of 9). Variant FTTFDDYAMH | PISWNSGSIGYADSVK | VGRGGGYFDY showed nd (0 of 3 replicates; controls 0 of 9). Variant GCTFDDYAMH | GISWFSGSIGYGDSVK | VGRGGGYFDY gave nd (0 of 3 replicates; controls 0 of 9). For GMTFDDYAMH | GISWNSGSIGYADSVK | VGRGGGYFDY, the assay gave 15 µM (3 of 3 replicates; controls 1 of 9).

Variant GTTFDDYAMH | GDSWNSGSIGYADSVK | VGRGGGYFKY gave 520 µM (1 of 3 replicates; controls 2 of 9). Variant GWTFDDYAMH | GISWNSGSIGYRDSVK | VGRGEGYFDY gave nd (0 of 3 replicates; controls 1 of 9). Variant GPTFDDYAMH | GISWNSGSIGYADHVL | VGRGGGYFDY gave nd (0 of 3 replicates; controls 0 of 9). With GDTFDDYAMH | GISWNSGSIGYADSVK | VGRGGGYFDY the result was nd (0 of 3 replicates; controls 0 of 9). For GCTFDDYAME | GISWNSGSIGYAKSVK | VGRGGGYFDY, the assay gave 7.0 µM (1 of 3 replicates; controls 1 of 9).

Variant GSTKDDLAMH | GISWNSGSIGYADSVK | VGRGGGYFDY gave nd (0 of 3 replicates; controls 0 of 9). With GMTFDDYAMH | GISWNSGSIGYADSVK | VGRLGGYFDY the result was nd (0 of 3 replicates; controls 1 of 9). For GATFDDYAMH | DISWNSGSIGYADSVK | VGRQGGYFDY, the assay gave 24 µM (1 of 3 replicates; controls 0 of 9).

The opening 7 entries, copied out:

For GLTFKDYAMH | GISWNSGSIGYADSVK | MGRGGGYFDY, the assay gave 390 nM (3 of 3 replicates; controls 1 of 9).
For GLTFDDYAGH | GISWNSGSIPYADSVK | VGRGGGYFDY, the assay gave 4.8 µM (1 of 3 replicates; controls 0 of 9).
For MVTFDDYAMH | GISWNSGSIGYADSVK | VGRGGGKFDY, the assay gave 17 µM (1 of 3 replicates; controls 1 of 9).
For GGTFDDYAMH | GISWNSGSIGAADSVK | VGRGGGKFDY, the assay gave nd (0 of 3 replicates; controls 0 of 9).
For GDTFDDYAMH | GISWASGSIGYADSVK | VGRGGGFFDY, the assay gave nd (0 of 3 replicates; controls 0 of 9).
For GWTFDDYAMH | GISWPSGSIGYADSVK | VGRGGVYFDY, the assay gave nd (0 of 3 replicates; controls 0 of 9).
For GTTFDDYAPH | GISWNSGSIGYADSVK | VGRGGGYFDY, the assay gave 43 µM (2 of 3 replicates; controls 0 of 9).

Values reported by Engelhart et al. 2022, doi:10.1038/s41597-022-01779-4 (FLAb copy).